# According to patent publication US20230121325A1, “FAST DISSOLVING PHARMACEUTICAL COMPOSITIONS” (XSPRAY PHARMA AB, priority 2021, published 2023):
# Details: Dasatinib + Omeprazole vs Dasatinib alone, geometric mean ratio, 90 mg Test Formulation, n = 16
smiles,measurement,value
"Cc1nc(Nc2ncc(C(=O)Nc3c(C)cccc3Cl)s2)cc(N2CCN(CCO)CC2)n1 [Dasatinib, dasatinib]",AUC(0-24 h) (Day 6/Day 1) Ratio,106.76%
same,AUC(0-∞) (Day 6/Day 1) Ratio,107.53%
same,Cmax (Day 6/Day 1) Ratio,85.67%
